Data from patent US20220226293A1, “TREATMENTS OF ANGIOEDEMA” (KALVISTA PHARMACEUTICALS LIMITED, priority 2019, published 2022).

By UniProt entry, the sequences of proteins in these tests, tags left out. Residues count along the entry.
UniProt P03952, 20-390 partner limits assumed: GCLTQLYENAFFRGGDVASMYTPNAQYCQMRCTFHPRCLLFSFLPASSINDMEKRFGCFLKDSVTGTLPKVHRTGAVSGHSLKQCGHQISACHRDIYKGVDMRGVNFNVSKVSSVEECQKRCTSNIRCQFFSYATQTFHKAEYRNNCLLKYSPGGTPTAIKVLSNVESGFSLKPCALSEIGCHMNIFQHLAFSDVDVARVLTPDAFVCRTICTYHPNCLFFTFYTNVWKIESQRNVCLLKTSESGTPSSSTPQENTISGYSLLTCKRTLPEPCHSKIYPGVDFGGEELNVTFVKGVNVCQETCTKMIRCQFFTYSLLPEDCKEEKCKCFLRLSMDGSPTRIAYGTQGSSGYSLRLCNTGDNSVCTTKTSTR
UniProt P03952, 391-638 limits assumed: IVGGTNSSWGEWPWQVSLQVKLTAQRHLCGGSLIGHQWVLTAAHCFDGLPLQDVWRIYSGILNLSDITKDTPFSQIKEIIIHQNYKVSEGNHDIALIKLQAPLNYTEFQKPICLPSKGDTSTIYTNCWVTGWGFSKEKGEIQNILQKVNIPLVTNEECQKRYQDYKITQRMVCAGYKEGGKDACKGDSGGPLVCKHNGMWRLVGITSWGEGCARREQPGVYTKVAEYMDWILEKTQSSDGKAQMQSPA

Biological target: T1, plasma kallikrein catalytic activity (Homo sapiens, UniProt P03952)
T1 construct: from tissue; host or cells: undiluted plasma of healthy male study participants after oral dosing, stimulated ex vivo with dextran sulfate
Test: Phase 1 SAD / food effect: ex vivo PKa catalytic activity in DXS-stimulated undiluted plasma
Details: po, cohort 8 (600 mg oral), for 10 hr
Method: This study was a randomized, double-blind, placebo-controlled single ascending dose (SAD) and crossover studies for food effect and capsule/tablet formulations.
PD measurements were determined in dextran sulfate (DXS) stimulated undiluted plasma using a fluorogenic enzyme assay and capillary based HK cleavage immunoassay.
The time until appearance of detectable amidolytic enzyme activity in DXS-stimulated plasma (lag time) was calculated from the catalytic activity assay. The detection sensitivity of the rate of catalytic activity in plasma based on using a Spark (Tecan) fluorimeter is a fluorescence increase to reach 1ΔF unit/sec.

## COCc1nn(Cc2ccc(Cn3ccccc3=O)cc2)cc1C(=O)NCc1nccc(OC)c1F [Compound of Formula A, N-[(3-fluoro-4-methoxypyridin-2-yl)methyl]-3-(methoxymethyl)-1-({4-[(2-oxopyridin-1-yl)methyl]phenyl}methyl)pyrazole-4-carboxamide]
  inhibition at 600 mg: > 50%
